The values that follow come from patent US5648367A, “Aminoalkyloximes” (Hoechst Marion Roussel, Inc., priority 1995, dated 1997).

The subject of this assay is Serotonin Reuptake. As to the kind of experiment: in vitro inhibition of serotonin uptake ([3H]-5HT uptake into whole rat brain synaptosomes). The format is biochemical, rat (Male CR Wistar rats). To be noted: rat whole brain (minus cerebellum) synaptosomes; 50 nM [3H]-5HT; 5 minutes at 37° C.; pH 7.4; log probit analysis. The source says: The aminoalkyloximes of the present invention are useful as agents for the alleviation of depression and affective disorders such as obsessive compulsive disorders, particularly those associated with serotonergic hypofunction. See, for example, W. K. Goodman, et al., Archives of General Psychiatry, 47, 577 (1990). […] In this assay, a modification of the tests described by A. S. Horn and R. C. A. M. Trace, British Journal of Pharmacology, 51, 399 (1974), A. Nagy and A. V. Delgado-Escueta, Journal of Neurochemistry, 43, 1114 (1984) and P. R. Dunkley, et al., Brain Research, 372, 115 (1986), the following reagents are prepared and employed:
Male CR Wistar rats (100-125 g)
3. Sucrose solution: 0.32M sucrose containing 5 mM HEPES and 0.1 mM EDTA; pH to 7.3 using Tris base.
4. A 0.1 mM stock solution of serotonin creatinine SO4 is made up in 0.01N HCl. This is used to dilute the specific activity of radiolabeled 5HT.
5. 5-[1,2-^3 H(N)]-Hydroxytryptamine creatinine sulfate (serotonin), specific activity 20-30 Ci/mmol, is used. The final desired concentration of [^3 H]-5HT in the assay is 50 nM. The dilution factor is 0.8. The KHBB is made up to contain 62.5 nM of [^3 H]-5HT.
6. […]

pIC50: −log10 of the molar value.

As for `CN(C)CCC=C1c2ccccc2CCc2ccccc21` [Amitriptyline, reference compound], the pIC50 was 7.04. `CNCCC(Oc1ccc(C(F)(F)F)cc1)c1ccccc1` (centres unmarked) [Fluoxetine, reference compound] showed a pIC50 of 7.38.
